In patent US9492398B2, “Nanocapsulation of essential oils for preventing or curing infectious diseases alone or with an antibiotic” (Eydo Pharma, priority 2011, dated 2016):

How the values were obtained:
Conditions in all cases: mouse, in vivo
Lactobacillus = tested on: Lactobacillus
anaerobes = tested on: anaerobes
Enterobacteria = tested on: Enterobacteria
[1] = tested on: Enterococci and Streptococci
[2] = tested on: digestive commensal flora

amoxicillin and clavulanic acid [AMC (Augmentin)]
Lactobacillus came back to a value of (Lactobacillus): 6 logs
Lactobacillus decreased (Lactobacillus): 7 logs
anaerobic bacteria (anaerobes): 10^9 bacteria per gram per stool
augmentation of Enterobacteria (Enterobacteria): ~3 logs
decrease of Enterobacteria (Enterobacteria): 1 log
augmentation of Enterococci and Streptococci [1]: 2 logs
effect on the digestive commensal flora in mice [2]: perturbed the flora
